Like-named read-outs stand apart in the source and are kept apart here.
Test system: infants 1 to 24 months postoperative from cardiac surgery
Conditions: for UMSS Deeply sedated/Deep sleep, number of patients / UMSS Minimally sedated/Sleepy, number of patients / UMSS Moderately sedated/Somnolent, number of patients / UMSS Unarousable, number of patients / UMSS Awake and alert, number of patients: N = 12, ITT; for UMSS, Mean / UMSS, Median: Pre-dose, ITT; for level of sedation (UMSS): all dose levels
[1] = Post Infusion Hour 10, Low dose (0.35 μg/kg bolus, 0.25 μg/kg/hour infusion)
[2] = Post Infusion Hour 10, Moderate dose (0.7 μg/kg bolus, 0.5 μg/kg/hour infusion)
[3] = Post Infusion Hour 14, High dose (1.0 μg/kg bolus, 0.75 μg/kg/hour infusion)
[4] = Post Infusion Hour 14, Low dose (0.35 μg/kg bolus, 0.25 μg/kg/hour infusion)
[5] = Post Infusion Hour 14, Moderate dose (0.7 μg/kg bolus, 0.5 μg/kg/hour infusion)
[6] = Post Infusion Hour 18, High dose (1.0 μg/kg bolus, 0.75 μg/kg/hour infusion)
[7] = Post Infusion Hour 18, Low dose (0.35 μg/kg bolus, 0.25 μg/kg/hour infusion)
[8] = Post Infusion Hour 18, Moderate dose (0.7 μg/kg bolus, 0.5 μg/kg/hour infusion)
[9] = Post Infusion Hour 22, High dose (1.0 μg/kg bolus, 0.75 μg/kg/hour infusion)
[10] = Post Infusion Hour 22, Low dose (0.35 μg/kg bolus, 0.25 μg/kg/hour infusion)
[11] = Post Infusion Hour 22, Moderate dose (0.7 μg/kg bolus, 0.5 μg/kg/hour infusion)
[12] = Post Infusion Hour 26, High dose (1.0 μg/kg bolus, 0.75 μg/kg/hour infusion)
[13] = Post Infusion Hour 26, Low dose (0.35 μg/kg bolus, 0.25 μg/kg/hour infusion)
[14] = Post Infusion Hour 26, Moderate dose (0.7 μg/kg bolus, 0.5 μg/kg/hour infusion)
[15] = Post-bolus/Pre-infusion, High dose (1.0 μg/kg bolus, 0.75 μg/kg/hour infusion)
[16] = Post-bolus/Pre-infusion, Low dose (0.35 μg/kg bolus, 0.25 μg/kg/hour infusion)
[17] = Post-bolus/Pre-infusion, Moderate dose (0.7 μg/kg bolus, 0.5 μg/kg/hour infusion)
[18] = Pre-bolus/Baseline, High dose (1.0 μg/kg bolus, 0.75 μg/kg/hour infusion)
[19] = Pre-bolus/Baseline, Low dose (0.35 μg/kg bolus, 0.25 μg/kg/hour infusion)
[20] = Pre-bolus/Baseline, Moderate dose (0.7 μg/kg bolus, 0.5 μg/kg/hour infusion)
[21] = High Dose (1.0 μg/kg bolus, 0.75 μg/kg/hour infusion)
[22] = Low Dose (0.35 μg/kg bolus, 0.25 μg/kg/hour infusion)
[23] = Moderate Dose (0.7 μg/kg bolus, 0.5 μg/kg/hour infusion)
[24] = six hours post-infusion, moderate dose

For `Cc1cccc([C@H](C)c2cnc[nH]2)c1C` [dexmedetomidine], the “UMSS Deeply sedated/Deep sleep, number of patients” value (shortened to “UMSS Deeply sedated/Deep sleep”) [1] was 2 patients, the “UMSS Minimally sedated/Sleepy, number of patients” value (shortened to “UMSS Minimally sedated/Sleepy”) [1] was 2 patients and the “UMSS Moderately sedated/Somnolent, number of patients” value (from here on “UMSS Moderately sedated/Somnolent”) [1] was 1 patients. The “UMSS Unarousable, number of patients” value [1] was 0 patients, the “UMSS Awake and alert, number of patients” value [2] was 1 patients and the “UMSS Deeply sedated/Deep sleep” value [2] was 1 patients. The “UMSS Minimally sedated/Sleepy” value [2] was 4 patients, the “UMSS Moderately sedated/Somnolent” value [2] was 4 patients and the “UMSS Unarousable, number of patients” value [2] was 1 patients. The “UMSS Awake and alert, number of patients” value [3] was 4 patients, the “UMSS Deeply sedated/Deep sleep” value [3] was 1 patients and the “UMSS Minimally sedated/Sleepy” value [3] was 2 patients. For the same compound, the “UMSS Moderately sedated/Somnolent” value [3] was 2 patients, the “UMSS Unarousable, number of patients” value [3] was 0 patients and the “UMSS Awake and alert, number of patients” value [4] was 2 patients. For the same compound, the “UMSS Deeply sedated/Deep sleep” value [4] was 2 patients, the “UMSS Minimally sedated/Sleepy” value [4] was 0 patients and the “UMSS Moderately sedated/Somnolent” value [4] was 4 patients. For the same compound, the “UMSS Unarousable, number of patients” value [4] was 0 patients, the “UMSS Awake and alert, number of patients” value [5] was 2 patients and the “UMSS Deeply sedated/Deep sleep” value [5] was 1 patients. For the same compound, the “UMSS Minimally sedated/Sleepy” value [5] was 3 patients, the “UMSS Moderately sedated/Somnolent” value [5] was 3 patients and the “UMSS Unarousable, number of patients” value [5] was 0 patients. For the same compound, the “UMSS Awake and alert, number of patients” value [6] was 2 patients, the “UMSS Deeply sedated/Deep sleep” value [6] was 0 patients and the “UMSS Minimally sedated/Sleepy” value [6] was 0 patients. For the same compound, the “UMSS Moderately sedated/Somnolent” value [6] was 2 patients, the “UMSS Unarousable, number of patients” value [6] was 0 patients and the “UMSS Awake and alert, number of patients” value [7] was 0 patients. For the same compound, the “UMSS Deeply sedated/Deep sleep” value [7] was 1 patients, the “UMSS Minimally sedated/Sleepy” value [7] was 2 patients and the “UMSS Moderately sedated/Somnolent” value [7] was 2 patients. The “UMSS Unarousable, number of patients” value [7] was 0 patients, the “UMSS Awake and alert, number of patients” value [8] was 1 patients and the “UMSS Deeply sedated/Deep sleep” value [8] was 0 patients. The “UMSS Minimally sedated/Sleepy” value [8] was 3 patients, the “UMSS Moderately sedated/Somnolent” value [8] was 1 patients and the “UMSS Unarousable, number of patients” value [8] was 1 patients. For the same compound, the “UMSS Awake and alert, number of patients” value [9] was 0 patients, the “UMSS Deeply sedated/Deep sleep” value [9] was 0 patients and the “UMSS Minimally sedated/Sleepy” value [9] was 0 patients. The “UMSS Moderately sedated/Somnolent” value [9] was 1 patients, the “UMSS Unarousable, number of patients” value [9] was 0 patients and the “UMSS Awake and alert, number of patients” value [10] was 1 patients. The “UMSS Deeply sedated/Deep sleep” value [10] was 0 patients, the “UMSS Minimally sedated/Sleepy” value [10] was 0 patients and the “UMSS Moderately sedated/Somnolent” value [10] was 2 patients. For the same compound, the “UMSS Unarousable, number of patients” value [10] was 0 patients, the “UMSS Awake and alert, number of patients” value [11] was 1 patients and the “UMSS Deeply sedated/Deep sleep” value [11] was 0 patients. For the same compound, the “UMSS Minimally sedated/Sleepy” value [11] was 0 patients, the “UMSS Moderately sedated/Somnolent” value [11] was 0 patients and the “UMSS Unarousable, number of patients” value [11] was 1 patients. For the same compound, the “UMSS Awake and alert, number of patients” value [12] was 0 patients, the “UMSS Deeply sedated/Deep sleep” value [12] was 0 patients and the “UMSS Minimally sedated/Sleepy” value [12] was 0 patients. The “UMSS Moderately sedated/Somnolent” value [12] was 0 patients, the “UMSS Unarousable, number of patients” value [12] was 0 patients and the “UMSS Awake and alert, number of patients” value [13] was 0 patients. For the same compound, the “UMSS Deeply sedated/Deep sleep” value [13] was 0 patients, the “UMSS Minimally sedated/Sleepy” value [13] was 1 patients and the “UMSS Moderately sedated/Somnolent” value [13] was 0 patients. For the same compound, the “UMSS Unarousable, number of patients” value [13] was 0 patients, the “UMSS Awake and alert, number of patients” value [14] was 0 patients and the “UMSS Deeply sedated/Deep sleep” value [14] was 0 patients. For the same compound, the “UMSS Minimally sedated/Sleepy” value [14] was 0 patients, the “UMSS Moderately sedated/Somnolent” value [14] was 0 patients and the “UMSS Unarousable, number of patients” value [14] was 0 patients. The “UMSS Awake and alert, number of patients” value [15] was 0 patients, the “UMSS Deeply sedated/Deep sleep” value [15] was 0 patients and the “UMSS Minimally sedated/Sleepy” value [15] was 0 patients. For the same compound, the “UMSS Moderately sedated/Somnolent” value [15] was 0 patients, the “UMSS Unarousable, number of patients” value [15] was 11 patients and the “UMSS Awake and alert, number of patients” value [16] was 0 patients. For the same compound, the “UMSS Deeply sedated/Deep sleep” value [16] was 1 patients, the “UMSS Minimally sedated/Sleepy” value [16] was 1 patients and the “UMSS Moderately sedated/Somnolent” value [16] was 0 patients. For the same compound, the “UMSS Unarousable, number of patients” value [16] was 10 patients, the “UMSS Awake and alert, number of patients” value [17] was 0 patients and the “UMSS Deeply sedated/Deep sleep” value [17] was 2 patients. For the same compound, the “UMSS Minimally sedated/Sleepy” value [17] was 0 patients, the “UMSS Moderately sedated/Somnolent” value [17] was 1 patients and the “UMSS Unarousable, number of patients” value [17] was 9 patients. The “UMSS Awake and alert, number of patients” value [18] was 0 patients, the “UMSS Deeply sedated/Deep sleep” value [18] was 1 patients and the “UMSS Minimally sedated/Sleepy” value [18] was 0 patients. For the same compound, the “UMSS Moderately sedated/Somnolent” value [18] was 0 patients, the “UMSS Unarousable, number of patients” value [18] was 10 patients and the “UMSS Awake and alert, number of patients” value [19] was 0 patients. The “UMSS Deeply sedated/Deep sleep” value [19] was 0 patients, the “UMSS Minimally sedated/Sleepy” value [19] was 1 patients and the “UMSS Moderately sedated/Somnolent” value [19] was 0 patients. The “UMSS Unarousable, number of patients” value [19] was 11 patients, the “UMSS Awake and alert, number of patients” value [20] was 0 patients and the “UMSS Deeply sedated/Deep sleep” value [20] was 1 patients. For the same compound, the “UMSS Minimally sedated/Sleepy” value [20] was 0 patients, the “UMSS Moderately sedated/Somnolent” value [20] was 0 patients and the “UMSS Unarousable, number of patients” value [20] was 11 patients. The “UMSS, Mean” value [21] was 3.9, the “UMSS, Median” value [21] was 4.0 and the “UMSS, Mean” value [22] was 3.8. The “UMSS, Median” value [22] was 4.0, the “UMSS, Mean” value [23] was 3.9 and the “UMSS, Median” value [23] was 4.0. For the same compound, the “level of sedation (UMSS)” value (after 4 hours infusion through the end of infusion) was “moderate level of sedation (UMSS 1-3)”, the “level of sedation (UMSS)” value (pre-dose to 2 hours after infusion) was “deep sedation (UMSS 3-4)” and the “mean change from Baseline maximum BIS value” (“mean change” for short) (pre-infusion, high dose) was −8.2±13.43. For the same compound, the “mean change” value (pre-infusion, moderate dose) was −5.8±13.22, the “incidence of patients "moderately sedated/somnolent" (UMSS)” value (six hours post-infusion, high dose) was 50.0% and the “incidence of patients "moderately sedated/somnolent" (UMSS)” value (six hours post-infusion, low dose) was 58.3%. The “incidence of patients "moderately sedated/somnolent" (UMSS)” value [24] was 41.7% and the “mean change” value [24] was 14.2±12.21.

Source: US20130096170A1 (priority 2011, published 2013)
